Tested on: D3R-expressing dopaminergic neurons derived from human iPSCs
Assay: MTT cell viability, protection from 6-OHDA-induced cell death
Conditions: 24 h pretreatment, 30 μM 6-OHDA 24 h

With `COc1ccc(OCCN2CCN(C(=O)c3cc4ccccc4[nH]3)CC2)cc1` [Compound 20, (1H-Indol-2-yl)(4-(2-(4-methoxyphenoxy)ethyl)piperazin-1-yl)methanone] the “concentration giving maximal reduction in 6-OHDA-induced cell death” value was 500 nM and the “concentration giving significant reduction in 6-OHDA-induced cell death” value was 50 nM.
